Results reported in PMC7778606, “Development of the phenylpyrazolo[3,4-d]pyrimidine-based, insulin-like growth factor receptor/Src/AXL-targeting small molecule kinase inhibitor” (Theranostics, 2021).

Test system: Src
Experiment: Western blot, phosphorylation of Src in H1944 and A549 cells
Format: cell-based, human
Conditions: 50 nM monotherapy, 1 day

In the case of Cc1nc(Nc2ncc(C(=O)Nc3c(C)cccc3Cl)s2)cc(N2CCN(CCO)CC2)n1 [Dasatinib, dasatinib], the “phosphorylation of Src” value is reported as “suppressed phosphorylation”.
